Experiments:
Daphnia carinata = conditions: long-term exposure; cited from earlier work
Daphnia [1] = conditions: in vivo; cited from earlier work
[2] = test system: Daphnia galeata mendotae (CDF-1 clone); conditions: in vivo
[3] = test system: Daphnia galeata-mendotae (clone CDF-1)
Daphnia [4] = conditions: low levels; cited from earlier work

Molecule: O=S1OCC2C(CO1)C1(Cl)C(Cl)=C(Cl)C2(Cl)C1(Cl)Cl (stereo not shown) [Endosulfan, endosulfan]
- Concentration delaying time of first reproduction (Daphnia carinata): 440 ppb
- Relative allocation of available resources for reproduction (Daphnia [1]): did not induce changes

Molecule: ClC1=C(Cl)[C@]2(Cl)[C@@H]3[C@@H]4C[C@@H]([C@H]5O[C@@H]45)[C@@H]3[C@@]1(Cl)C2(Cl)Cl [Dieldrin, dieldrin]
- Male production [2]: reduced male production

Molecule: nonylphenol
- Reproduction ([3]; all treatments, 30 days): reduced reproduction
- Production of ephippia ([3]; high doses): decreased slightly
- Reductions in r and in ephippia production, cause ([3]; in vivo): largely a result of increased adult mortality
- Resting egg production (Daphnia [4]): reduce resting egg production
